These results are taken from PubChem BioAssay (Tox21).

Several values for one entry are separate records, joined by “and”; a condition that tells them apart may be missing. Identical values can stand only once. The list shows a part of the results, in another mix than the full data. Inconclusive results are not listed. Activity calls are given as the source filed them. Calls follow the shape of the dose curve; as a rule, active = well fitted activation curve with a large enough effect in the repeat runs; inconclusive = weak or mixed curves; inactive = no such curve, though single readings can be large or run the other way.
% is scaled to controls: 0 for no effect and ±100 for the full control effect.

The test in a line: qHTS assay for small molecules that induce genotoxicity in human embryonic kidney cells expressing luciferase-tagged ATAD5 (AID 651632). Also: nearly all actives have a fitted effect of over 15% in size. As to conditions: HEK293T ATAD5-luciferase induction, 16 h; at 83.3 µM (top of the series) unless noted. The source says:
U.S. Tox21 Program National Center for Advancing Translational Sciences [NCATS] NIH Chemical Genomics Center [NCGC] U.S. Environmental Protection Agency [EPA] National Institutes of Environmental Health Sciences [NIEHS] National Toxicology Program [NTP] U.S. Food and Drug Administration [FDA] Tox21 Assay Overview: As cancer cells divide rapidly and during every cell division they need to duplicate their genome by DNA replication. The failure to do so results in the cancer cell death. Based on this concept, many chemotherapeutic agents were developed but have limitations such as low efficacy and severe side effects etc. A new cell based assay was developed to find the compounds that effectively block DNA replication either by directly damaging DNA or by inhibiting other cellular mechanisms. Enhanced Level of Genome Instability Gene 1 (ELG1; human ATAD5) protein levels increase in response to various types of DNA damage. Using a luciferase reporter-gene tagged with ATAD5, a cell-based assay [developed by Kyungjae Myung, NHGRI, NIH] was used to measure the induction of ATAD5 in human embryonic kidney cells (HEK293T). So, increase in luciferase activity can be used to identify the compounds that cause genetic stress.
Tox21 Assay Protocol Summary: For genotoxicity screening, 2,000 cells in 5 uL/well were dispensed into white, solid-bottom 1536-well plates using a Multidrop Combi (Thermo Scientific) dispenser. Following transfer of 23 nL compound or DMSO vehicle by a pin tool, the plates were incubated 16 hr at 37C and 5% CO2. 5 ul Amplite (AAT Bioquest, Inc.) was then added to each plate and following 30 min incubation at room temperature, luciferase activity was quantified on a ViewLux CCD-based plate reader.
(Quantitative high-throughput screening tests each substance at several concentrations.)
`O=[p+]1oc2ccccc2c2ccccc21` (stereo unspecified): the activation is inactive: 10.6%.
To `CCNC(C)Cc1ccc2c(c1)OCO2` (stereo unspecified) belongs inactive: 3.4% [at 95.3 µM]; to `CCOP(=S)(CC)Sc1ccccc1` (stereo unspecified), inactive: -2.46%.
Turning to `O=C(OC1CN2CCC1CC2)c1ccccc1` (stereo unspecified), the activation was inactive: 1.65%.
For `O=P(Cl)(Oc1ccccc1)Oc1ccccc1`, the activation is inactive: 1.92%.
For the molecule `O=[As]c1ccccc1` (stereo unspecified), the activation was inactive: -16.2%.
As to `O=P(Cl)(Cl)c1ccccc1`, the activation is inactive: 4.45%.
Turning to `CCCCC(CC)CO[P+](=O)OCC(CC)CCCC` (stereo unspecified), the activation was inactive: 2.54%.
With `Cc1cc([N+](=O)[O-])c(O)c([N+](=O)[O-])c1`, the activation is inactive: -8.75% [at 95.3 µM].
Regarding `Cc1cc([N+](=O)[O-])cc([N+](=O)[O-])c1O`, the activation was inactive: -11.8% and inactive: -1.88%.
In the case of `CCCCO[P+](=O)OCCCC` it was inactive: -2.81% and inactive: -0.652%; in that of `O=[P+](Oc1ccccc1)Oc1ccccc1`, inactive: 1.27%; in that of `COP(=S)(Cl)OC`, inactive: -3.79% [at 95.3 µM].
Take `CN(C(=O)Cc1ccccc1)[C@H]1CC[C@@]2(CCCO2)C[C@@H]1N1CCCC1`: the activation is inactive: 1.73%.
To `CCOC(=O)Cl` belongs inactive: 1%; to `ClP(Cl)c1ccccc1`, inactive: 0.141%; to `CN(C(=O)Cc1ccc(Cl)c(Cl)c1)[C@H]1CC[C@@]2(CCCO2)C[C@@H]1N1CCCC1`, inactive: -2.81%.
On to `COC(=O)Cl`, for which the activation was inactive: 1.15%.
As for `CCCCCCCCCCCCCC[P+](CCCCCC)(CCCCCC)CCCCCC`, the activation is inactive: -12.7%.
Take `CN(C(=O)Cc1cccc2occc12)[C@H]1CC[C@@]2(CCCO2)C[C@@H]1N1CCCC1`: the activation was inactive: 2.98%.
In the case of `CC(C)CCCCCCCOP(OCCCCCCCC(C)C)Oc1ccccc1`, the activation is inactive: 2.45%.
